Where “and” joins values, the source holds several entries; their conditions need not be identical. Equal values may be shown once.
Target: T1, NTR1 (Homo sapiens, UniProt P30989)
T1 construct: endogenous in cells; host or cells: PC3 cells (ATCC)
Experiment: ^125I-NT binding to PC3 cells
Conditions: 10^5 cpm ^125I-ligand, 37° C.

Sequences of proteins named here, by UniProt entry; tags and fusion partners are left off.
UniProt P30989, whole entry: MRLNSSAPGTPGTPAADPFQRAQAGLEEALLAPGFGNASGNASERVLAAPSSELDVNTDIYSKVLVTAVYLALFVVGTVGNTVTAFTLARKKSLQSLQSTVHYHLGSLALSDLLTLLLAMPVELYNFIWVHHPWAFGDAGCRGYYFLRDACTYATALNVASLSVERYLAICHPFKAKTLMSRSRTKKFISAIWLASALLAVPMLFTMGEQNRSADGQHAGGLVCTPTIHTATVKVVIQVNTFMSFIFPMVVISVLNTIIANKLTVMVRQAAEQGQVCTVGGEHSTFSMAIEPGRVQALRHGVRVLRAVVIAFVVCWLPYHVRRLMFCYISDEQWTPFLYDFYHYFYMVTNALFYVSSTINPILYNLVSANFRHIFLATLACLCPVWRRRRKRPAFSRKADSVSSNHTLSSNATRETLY

**Q.** For “^125I-NT: mono-iodinated neurotensin, agonist ligand for NTR1”, which “Specific Binding (% of total)” value is on record?
**A.** Its value is > 95 % of total and ~95 % of total.
